Source: patent US6413935B1, “Induction of immune response against desired determinants” (priority 1993, dated 2002)

Chains of the proteins cited; added tags and fusions are not shown. Lines headed by an entry give the natural chain unless they say otherwise; changes in a name come on top. Residues count along the entry.
UniProt P01903, 26-254: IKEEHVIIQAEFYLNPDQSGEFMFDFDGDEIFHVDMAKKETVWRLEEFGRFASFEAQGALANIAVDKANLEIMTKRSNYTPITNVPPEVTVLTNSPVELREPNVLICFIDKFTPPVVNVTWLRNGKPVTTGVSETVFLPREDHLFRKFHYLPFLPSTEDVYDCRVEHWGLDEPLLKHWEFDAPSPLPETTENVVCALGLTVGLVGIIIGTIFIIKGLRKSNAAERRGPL
UniProt P01911, 30-266 with the stated changes: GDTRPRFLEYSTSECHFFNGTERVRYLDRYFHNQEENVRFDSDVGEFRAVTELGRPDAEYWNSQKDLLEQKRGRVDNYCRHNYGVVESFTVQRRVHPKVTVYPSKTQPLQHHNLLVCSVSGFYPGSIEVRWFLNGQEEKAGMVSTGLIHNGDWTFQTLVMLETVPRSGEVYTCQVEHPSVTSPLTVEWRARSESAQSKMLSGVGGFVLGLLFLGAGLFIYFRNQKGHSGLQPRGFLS

Legend:
DR3 = DR3 (Homo sapiens, UniProt P01903+P01911, A100K/A102G/A103R/A169T/F55Y/I96L/K41T/L162R/M171V/P40S/Q125H/Q178H/Q39Y/R42S/S66N/T106N/T262R/W38E/Y61H); experiment: biochemical; conditions: PADRE Class II Binding Affinities DR3, Table IX
DR7 = conditions: read-out: PADRE Class II Binding Affinities DR7; Table IX; listed as 965.032

Question: Which IC50 (DR3) does the source give for `CC(C)C[C@H](NC(=O)[C@@H](NC(=O)[C@H](CC(N)=O)NC(=O)[C@H](C)NC(=O)[C@H](CCCNC(=N)N)NC(=O)[C@@H](NC(=O)[C@H](CC1CCCCC1)NC(=O)[C@H](CCCNC(=N)N)NC(=O)[C@@H](C)N)C(C)C)[C@@H](C)O)C(=O)N[C@@H](CCCCN)C(=O)N[C@@H](C)C(=O)N[C@@H](C)C(=O)N[C@H](C)C(N)=O` [Peptide 965.06] here?
Answer: The IC50 was 8.33 µM.

Question: `CC(C)C[C@H](NC(=O)[C@@H](NC(=O)[C@H](CC(N)=O)NC(=O)[C@H](C)NC(=O)[C@H](Cc1c[nH]c2ccccc12)NC(=O)[C@@H](NC(=O)[C@H](CC1CCCCC1)NC(=O)[C@H](CCCCN)NC(=O)[C@@H](C)N)C(C)C)[C@@H](C)O)C(=O)N[C@@H](CCCCN)C(=O)N[C@@H](C)C(=O)N[C@@H](C)C(=O)N[C@H](C)C(N)=O` [Peptide 965.031] was tested. Which IC50 (DR7) did it give?
Answer: The IC50 was 0.347 µM.
